Patent publication US20040191826A1

What was measured:
DPP8/V5/His (human) = DPP8/V5/His (human) (UniProt Q6V1X1); experiment: cell-based or functional assay
DPPIV/V5/His (human) = DPPIV/V5/His (human) (UniProt P27487); experiment: cell-based or functional assay

Aprotinin (from UniProt P00974 36-93)
Residual activity (% of control), H-Ala-Pro-pNA hydrolysis, inhibitor at 4 ug/mL (DPP8/V5/His (human)): 47 % of control
Residual activity (% of control), H-Gly-Pro-pNA hydrolysis, inhibitor at 4 ug/mL (DPPIV/V5/His (human)): 81 % of control
